Literature values in article PMC10803328 (Scientific Reports, 2024).

Sequences of proteins named here, by UniProt entry; tags and fusion partners are left off. A change or cut given only in a name is not applied to a line headed by its entry.
UniProt P23415: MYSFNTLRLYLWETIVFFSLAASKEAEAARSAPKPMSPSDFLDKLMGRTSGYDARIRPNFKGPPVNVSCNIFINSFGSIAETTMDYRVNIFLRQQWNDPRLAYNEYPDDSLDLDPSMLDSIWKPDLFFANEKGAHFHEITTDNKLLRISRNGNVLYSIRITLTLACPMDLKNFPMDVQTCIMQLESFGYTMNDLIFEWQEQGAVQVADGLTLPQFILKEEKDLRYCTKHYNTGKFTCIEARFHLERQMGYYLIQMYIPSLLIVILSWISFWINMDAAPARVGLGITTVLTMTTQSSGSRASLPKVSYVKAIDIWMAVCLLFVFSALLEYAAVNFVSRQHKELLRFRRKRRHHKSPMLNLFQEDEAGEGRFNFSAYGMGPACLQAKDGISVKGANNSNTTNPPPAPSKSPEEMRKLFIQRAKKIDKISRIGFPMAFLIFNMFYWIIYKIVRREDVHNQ
UniProt P36544: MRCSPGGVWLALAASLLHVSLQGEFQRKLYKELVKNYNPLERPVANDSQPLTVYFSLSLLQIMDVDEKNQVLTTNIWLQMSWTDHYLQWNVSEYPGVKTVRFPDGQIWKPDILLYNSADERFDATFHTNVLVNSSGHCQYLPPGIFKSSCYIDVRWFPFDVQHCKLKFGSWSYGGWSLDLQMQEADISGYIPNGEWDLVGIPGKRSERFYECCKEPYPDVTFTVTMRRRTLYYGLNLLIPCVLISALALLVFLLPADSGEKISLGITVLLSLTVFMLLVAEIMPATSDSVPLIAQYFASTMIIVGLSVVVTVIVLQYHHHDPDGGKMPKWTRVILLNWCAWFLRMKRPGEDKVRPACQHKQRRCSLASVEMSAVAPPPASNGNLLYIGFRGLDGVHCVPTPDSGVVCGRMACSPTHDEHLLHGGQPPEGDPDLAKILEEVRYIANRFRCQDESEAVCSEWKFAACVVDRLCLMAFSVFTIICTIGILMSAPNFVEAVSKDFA

Biological target: PSAM^4-GlyR (Homo sapiens, UniProt P23415+P36544, L131G/Q139L/Y217F)
Parameters: expressed in transfected cells; method as in PMID 30872534, PMID 24556591, PMID 36279419
Settings: read-out: PSAM^4-GlyR (Ki); in vitro binding assay, literature; cited from earlier work

Question: Which Ki does the source give for `O=S1(=O)c2cc(N3CCN4CCC3CC4)ccc2-c2cccc(F)c21` [ASEM] here?
Answer: 0.26 nM
